Data set [1] in a line: In vitro compatibility of absorption enhancers with zinc sulfate (Example 16). The settings on record: absorption enhancer 10 mg/ml with desmopressin acetate and ZnSO4 5 mg/ml, in 2 ml aqua purificata, visual examination. Type of data set: physicochemical. As for the experimental part:
Solid dry powder mixtures of desmopressin acetate, zinc sulfate and different absorption enhancers were prepared and dissolved in 2 ml aqua purificata.

The conditions of data set [2]: for AUC(0-t) / Cmax: human insulin 22 IU/kg into mid-jejunum, rats, sodium caprate 10 mg/ml.
The conditions of data set [3]: mid-jejunum, rats.
[4] abbreviates: no trace element, no reducing agent.
[5] abbreviates: predosing 10 min CuSO4 1 mg/ml + sodium ascorbate 10 mg/ml, 22 IU/kg human insulin + 50 mg/ml sodium caprate.
Where [6] appears, read: predosing CuSO4 + sodium ascorbate, 22 IU/kg human insulin + 50 mg/ml lauroyl-DL-carnitine-chloride + 40 mg/ml Na2HPO4.
Setting [7] is: predosing CuSO4 + sodium ascorbate, 22 IU/kg human insulin + 100 mg/ml Cremophor EL + 10 mg/ml Na2HPO4.

Where two headings read alike, the source gives them in different places.

On to Sucrose laurate, for which the “Dissolution in aqueous medium (2 ml)” value in data set [1] is “Clear solution”.

As for human insulin, the “oral bioavailability of human insulin, in words” value in data set [2] (blend with sodium caprate, copper and ascorbate compared with sodium caprate alone) is recorded as “moderately improved the oral bioavailability”. Also, the “AUC(0-t)” value in data set [2] (CuSO4 1 mg/ml, ascorbate) stood at 2505 ± 2921 pmol·min/L; in data set [2] (setting [4]), 2093 ± 1759 pmol·min/L; in data set [3] (setting [5]), 5351 ± 2289 pmol·min/L; in data set [3] (setting [6]), 145896 ± 89530 pmol·min/L; in data set [3] (setting [7]) it was 2340 ± 899 pmol·min/L. In addition, the Cmax in data set [2] (CuSO4 1 mg/ml, ascorbate) is 0.037 ± 0.054 nM; in data set [2] (setting [4]), 0.028 ± 0.024 nM; in data set [3] (setting [5]), 0.072 ± 0.026 nM; in data set [3] (setting [6]), 1.85 ± 1.12 nM; in data set [3] (setting [7]), 0.048 ± 0.023 nM.

These data come from US20170304195A1, “PHARMACEUTICAL FORMULATIONS FOR THE ORAL DELIVERY OF PEPTIDE OR PROTEIN DRUGS” (Cyprumed GmbH, priority 2014, published 2017).
